Measured values taken from ChEMBL document CHEMBL4616713, “Discovery of Novel Nonpeptidic PAR2 Ligands” (ACS Med Chem Lett, 2020).

Biological target: T1, Proteinase-activated receptor 2 (Homo sapiens, UniProt P55085)
T1 sequence (P55085 whole entry): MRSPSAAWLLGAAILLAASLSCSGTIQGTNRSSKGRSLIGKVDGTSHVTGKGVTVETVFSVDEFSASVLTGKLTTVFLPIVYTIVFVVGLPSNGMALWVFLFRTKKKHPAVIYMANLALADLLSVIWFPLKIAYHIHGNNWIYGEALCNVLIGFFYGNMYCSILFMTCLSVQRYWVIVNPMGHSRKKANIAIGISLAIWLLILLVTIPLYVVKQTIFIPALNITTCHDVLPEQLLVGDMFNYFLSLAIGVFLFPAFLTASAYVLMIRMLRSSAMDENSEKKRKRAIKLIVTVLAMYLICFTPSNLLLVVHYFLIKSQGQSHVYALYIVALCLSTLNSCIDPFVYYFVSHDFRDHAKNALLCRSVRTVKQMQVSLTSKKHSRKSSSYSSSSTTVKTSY
Assay: Agonist activity at PK1-tagged PAR2 (unknown origin) expressed in HEK293 cells assessed as induction of beta-arrestin recruitment incubated for 90 mins by Pathhunter chemiluminescent assay relative to 2f-LIGRLO-NH2
Type: cell-based
Conditions: 1.5 h
Method in brief: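 PathHunter enzyme-complementation read-out of β-arrestin-2 recruitment to PAR2 in HEK293 cells. Efficacy is expressed relative to reference 2f-LIGRLO-NH2. Data are mean ± SEM of at least three independent experiments run in duplicate.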

Emax: < 5%
SMILES: NC(=O)Cc1ccccc1CNC(=O)Cc1ccccc1CNC(=O)c1ccno1
